Most compounds without a hit are left out; they make up all but 2.3% or so of the library.
Yeast UUG start = alters start codon recognition fidelity in yeast | S. cerevisiae UUG-firefly luciferase reporter, luminescence/redox ratio | activity score, % at 18.7 µM | 350,000 compounds, 0.13% hits | AID 602363;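 active = replicate mean at a twofold rise or more, about +100% in these data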;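 note: firefly luciferase made from a UUG start codon reports start codon fidelity; reporter light over untreated wells divided by growth signal over untreated wells; some hits fall short of that in this replicate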
ARFGAP1 inh = inhibitors of rat ARFGAP1; Q62848; Arfgap1-stimulated ARF1 GTP hydrolysis, GDP FP detection; inhibition, % at 16.5 µM; actives 0.26% (n = 360,000);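 active = inhibition above a per-plate limit, mean inhibition of low control wells plus 3 SD, cut at about 25% in these data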
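Material: rat Arfgap1 catalytic domain, aa 1-136; also added: human ARF1(Δ1-17)-GTP substrate; compound dosing: one concentration, 16.5 µM, DMSO 1.26%; incubation: GTP hydrolysis reaction 2 h at 25 °C; measured by: Tracer-displacement fluorescence polarization with EDTA stop, 620/688 nm; evaluation: % inhibition from polarization; repeats: one replicate per compound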
ASAP1 GAP inh = blocks human ASAP1-stimulated Arf1 GTP hydrolysis. Q9ULH1. GDP FP detection. inhibition, % at 16.5 µM. actives 0.19% (n = 360,000). AID 624377; in the data active = inhibition above about 25%
MC4R ag barr = activates human MC4R beta-arrestin recruitment; P32245; U2OS MC4R beta-arrestin complementation, luminescence; percent of melanotan II response, DMSO zero; activation, % at 8.9 µM; actives 0.98% (n = 360,000); AID 540308;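 active = activation above a per-plate cutoff, the mean activation of sample wells on that plate plus 3 SD, cut at about 8% in these data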
MC4R antag cAMP = human MC4R antagonism in cAMP assay; P32245; MC4R-expressing cells, MTII-stimulated cAMP, LANCE TR-FRET; inhibition, % at 6.5 µM; actives 0.48% (n = 360,000);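 active = inhibition above its plate's cutoff, the mean of tested wells on that plate plus 3 SD, cut at about 29% in these data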
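System: U2OS-MC4R stable cell line; Technique: Eu-cAMP/anti-cAMP TR-FRET, emission 671 nm; Repeats: single well per compound; Also added: Melanotan II; Dosing: one concentration, 6.5 µM nominal; Schedule: 30-min compound, 1-h challenge, 1-h detection, room temperature.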
CendR NRP1 mod = alters CendR peptide binding to human NRP-1. FAM-RPARPAR peptide binding to NRP-1, fluorescence polarization. inhibition, % at 25 µM. actives 0.85% (n = 360,000). AID 602438;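 active = inhibition or corrected inhibition above about 18%, plus a signal ratio from 0.5 to 1.5, limit read from the data, passing the limit was not always enough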
A number is an active result.

How did OCC1CCCN(C(=S)Nc2ccc(Nc3ccccc3)cc2)C1 (centres undefined) do in these assays?
Yeast UUG start: inactive; ARFGAP1 inh: inactive; ASAP1 GAP inh: inactive; MC4R ag barr: inactive; MC4R antag cAMP: inactive; CendR NRP1 mod: 33

Results for CCOC(=O)c1c(C)[nH]c(C(=O)OCc2ccccc2)c1C ?
Yeast UUG start: inactive; ARFGAP1 inh: inactive; ASAP1 GAP inh: inactive; MC4R ag barr: inactive; MC4R antag cAMP: inactive; CendR NRP1 mod: inactive

Results for COC(=O)CCc1c(C)[nH]c(C(=O)OCc2ccccc2)c1C ?
Yeast UUG start: inactive; ARFGAP1 inh: inactive; ASAP1 GAP inh: inactive; MC4R ag barr: inactive; MC4R antag cAMP: inactive; CendR NRP1 mod: 20

What do the screens show for `Cc1ccc(NC(=O)CSc2nnc(C)n2-c2ccccc2)cc1`?
Yeast UUG start: inactive; ARFGAP1 inh: inactive; ASAP1 GAP inh: inactive; MC4R ag barr: inactive; MC4R antag cAMP: inactive; CendR NRP1 mod: inactive

What do the screens show for `COc1cccc(NC(=O)CSc2nc(O)c(C)c(=O)n2-c2ccc(C)cc2)c1`?
Yeast UUG start: inactive; ARFGAP1 inh: inactive; ASAP1 GAP inh: inactive; MC4R ag barr: inactive; MC4R antag cAMP: inactive; CendR NRP1 mod: 24

What do the screens show for `Cc1ccc(-n2c(C)nnc2SCC(=O)Nc2ccccc2)cc1`?
Yeast UUG start: inactive; ARFGAP1 inh: inactive; ASAP1 GAP inh: inactive; MC4R ag barr: inactive; MC4R antag cAMP: inactive; CendR NRP1 mod: 20

Results for C[C@@H]1CN([C@@H](C)CO)C(=O)c2cc(NC(=O)Nc3ccc(F)cc3)ccc2O[C@@H](C)CCCCO[C@H]1CN(C)Cc1ccccc1 ?
Yeast UUG start: inactive

Results for COC(=O)c1c(C)n(-c2ccccc2)c2ccc(O)cc12 ?
Yeast UUG start: inactive; ARFGAP1 inh: inactive; ASAP1 GAP inh: inactive; MC4R ag barr: inactive; MC4R antag cAMP: inactive; CendR NRP1 mod: inactive

What do the screens show for `CN(C)/C=C/c1c([N+](=O)[O-])c2ccc(O)cc2n1-c1ccccc1`?
ARFGAP1 inh: inactive; ASAP1 GAP inh: inactive; MC4R ag barr: inactive; MC4R antag cAMP: inactive; CendR NRP1 mod: 33

What do the screens show for `O=[N+]([O-])c1ccc(N2CCN(Cc3ccc([N+](=O)[O-])o3)CC2)cc1`?
Yeast UUG start: inactive; ARFGAP1 inh: inactive; ASAP1 GAP inh: inactive; MC4R ag barr: inactive; MC4R antag cAMP: inactive; CendR NRP1 mod: inactive

How did O=[N+]([O-])c1ccc(CN2CCN(c3ccccc3)CC2)o1 do in these assays?
Yeast UUG start: inactive; ARFGAP1 inh: inactive; ASAP1 GAP inh: inactive; MC4R ag barr: inactive; MC4R antag cAMP: inactive; CendR NRP1 mod: 28

How did COCCNC(=O)/C(C#N)=C/c1c(N2CCN(c3cccc(Cl)c3)CC2)nc2c(C)cccn2c1=O do in these assays?
Yeast UUG start: inactive; ARFGAP1 inh: inactive; ASAP1 GAP inh: inactive; MC4R ag barr: inactive; MC4R antag cAMP: inactive; CendR NRP1 mod: 19

How did COCCNC(=O)/C(C#N)=C/c1c(N2CCN(c3ccccc3)CC2)nc2c(C)cccn2c1=O do in these assays?
Yeast UUG start: inactive; ARFGAP1 inh: inactive; ASAP1 GAP inh: inactive; MC4R ag barr: inactive; MC4R antag cAMP: inactive; CendR NRP1 mod: inactive

What do the screens show for `CO[C@H]1CN(C)C(=O)c2ccc(NC(=O)C3CCCCC3)cc2OC[C@@H](C)N(C)C[C@H]1C`?
Yeast UUG start: inactive

How did C[C@H](CO)N1C[C@H](C)[C@H](CN(C)C(=O)Nc2ccc(C(F)(F)F)cc2)Oc2ccc(NC(=O)c3ccncc3)cc2CC1=O do in these assays?
Yeast UUG start: inactive

How did COc1ccccc1NC(=S)NCCc1ccccc1 do in these assays?
Yeast UUG start: inactive; ARFGAP1 inh: inactive; ASAP1 GAP inh: inactive; MC4R ag barr: inactive; MC4R antag cAMP: inactive; CendR NRP1 mod: 30

What do the screens show for `O=C(c1ccncc1)N1CCN(c2cc(-c3ccccc3)nc3cc(-c4cccc(Cl)c4)nn23)CC1`?
Yeast UUG start: inactive; ARFGAP1 inh: inactive; ASAP1 GAP inh: inactive; MC4R ag barr: inactive; MC4R antag cAMP: inactive; CendR NRP1 mod: inactive

How did O=C(c1ccoc1)N1CCN(c2cc(-c3ccncc3)nc3cc(-c4cccc(Cl)c4)nn23)CC1 do in these assays?
ARFGAP1 inh: inactive; ASAP1 GAP inh: inactive; MC4R ag barr: 8.8; MC4R antag cAMP: inactive; CendR NRP1 mod: inactive

Results for CC(C)NC(=O)N(C)C[C@H]1Oc2c(NC(=O)Nc3ccccc3)cccc2C(=O)N([C@H](C)CO)C[C@H]1C ?
Yeast UUG start: inactive

Results for CNC(=O)C[C@@H]1CC[C@H]2[C@@H](COC[C@@H](O)CN2S(=O)(=O)c2ccc(Oc3ccccc3)cc2)O1 ?
Yeast UUG start: inactive

How did COc1ccc(NC(=O)NNC(=O)C(O)(c2ccccc2)c2ccccc2)cc1 do in these assays?
Yeast UUG start: inactive; ARFGAP1 inh: inactive; ASAP1 GAP inh: inactive; MC4R ag barr: inactive; MC4R antag cAMP: inactive; CendR NRP1 mod: 28

Results for COc1ccc(NC(=O)NC(=O)c2ccccc2)cc1 ?
Yeast UUG start: inactive; ARFGAP1 inh: inactive; ASAP1 GAP inh: inactive; MC4R ag barr: inactive; MC4R antag cAMP: inactive; CendR NRP1 mod: inactive

How did O=C(C[C@H]1CC[C@H](NC(=O)NC2CCCCC2)[C@H](CO)O1)NCc1ccccc1 do in these assays?
Yeast UUG start: inactive

Results for Cc1ccc2c(Cl)c(C(=O)NCCc3ccccc3)sc2c1 ?
Yeast UUG start: inactive; ARFGAP1 inh: inactive; ASAP1 GAP inh: inactive; MC4R ag barr: inactive; MC4R antag cAMP: inactive; CendR NRP1 mod: inactive

What do the screens show for `COc1ccc(CCNC(=O)c2sc3cc(C)ccc3c2Cl)cc1`?
Yeast UUG start: inactive; ARFGAP1 inh: inactive; ASAP1 GAP inh: inactive; MC4R ag barr: 9.4; MC4R antag cAMP: inactive; CendR NRP1 mod: inactive

How did Cc1ccc(NC(=O)c2ccc(Cl)c(N3C(=O)C=CC3=O)c2)cc1 do in these assays?
ARFGAP1 inh: inactive; ASAP1 GAP inh: inactive; MC4R ag barr: inactive; MC4R antag cAMP: 55; CendR NRP1 mod: inactive

What do the screens show for `Cc1cccc(COc2ccc(S(=O)(=O)N3CCOCC3)cc2[N+](=O)[O-])c1`?
ARFGAP1 inh: inactive; ASAP1 GAP inh: inactive; MC4R ag barr: inactive; MC4R antag cAMP: inactive; CendR NRP1 mod: 20

Results for CC(C)C(Nc1ccc(S(=O)(=O)N2CCOCC2)cc1[N+](=O)[O-])C(=O)O (centres undefined) ?
ARFGAP1 inh: inactive; ASAP1 GAP inh: inactive; MC4R ag barr: inactive; MC4R antag cAMP: inactive; CendR NRP1 mod: 28

How did C[C@@H]1CN([C@H](C)CO)S(=O)(=O)c2ccc(-c3cccnc3)cc2O[C@@H]1CN(C)C(=O)c1cccc(F)c1 do in these assays?
Yeast UUG start: inactive

Results for COc1cccc(-c2cnc3c(c2)C(=O)N([C@@H](C)CO)C[C@@H](C)[C@H](CN(C)Cc2ccncc2)O3)c1 ?
Yeast UUG start: inactive

How did O=C(O)c1ccc(N=N/C(=N\Nc2ccc(C(=O)O)cc2)c2ccccc2)cc1 do in these assays?
Yeast UUG start: inactive; ARFGAP1 inh: inactive; ASAP1 GAP inh: inactive; MC4R ag barr: inactive; MC4R antag cAMP: inactive; CendR NRP1 mod: 34

Bioassay records from PubChem.
